## scFv variants of Ab-95 (light chain) against a SARS-CoV-2 spike peptide

Antigen: PDVDLGDISGINAS, a 14-residue peptide of the SARS-CoV-2 spike HR2 region.

Parent: Ab-95, a human scFv built as VH, a 15-residue (Gly4Ser)3 linker, VL. Only the CDRs of the light chain vary.
VH: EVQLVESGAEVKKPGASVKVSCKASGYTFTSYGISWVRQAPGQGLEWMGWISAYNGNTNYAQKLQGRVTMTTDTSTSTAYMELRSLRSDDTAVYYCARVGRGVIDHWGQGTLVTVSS
VL: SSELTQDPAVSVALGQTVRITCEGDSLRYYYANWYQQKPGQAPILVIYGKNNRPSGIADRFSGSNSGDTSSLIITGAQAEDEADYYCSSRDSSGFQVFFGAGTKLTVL

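The library (AAYL52) carries one to three amino acid substitutions per variant, with no insertions or deletions. The assay is AlphaSeq: two haploid yeast populations carry antibody and antigen on their surface. After mating in shaken culture at 30 °C for 16 h, diploids were selected and their barcode pairs sequenced. Scores were corrected for input abundance and mapped to Kd with protein pairs of known affinity run in the same pool. The assay was run in three technical replicates.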

The parent's light chain CDRs are EGDSLRYYYAN, GKNNRPS, SSRDSSGFQVF; each variant's own CDRs replace them letter for letter.
Affinities are written as log10 Kd with Kd in nM; a lower number is a better binder.
An entry "nd" has no value in the source: the pair was not observed among the diploids in that replicate. This suggests poor binding but is not conclusive.
As a blank, each scFv also met three strains without target: over library AAYL52, 28% of these pairings were detected, typically at 3.91 and seldom below 2.90. Also given: how often the same scFv was detected with the empty control strains.

For EGDSFRYYYAC / GKNNRMS / SSRDSSGFQVF, the assay gave 3.44, 2.98, 2.62 (controls 2 of 9).
For EGDSNRYMYAN / GKNNRPS / SSRDSSGGQVF, the assay gave nd, 2.93, 4.30 (controls 4 of 9).
For IGDSLRYYYAN / GKNNRYS / SSRDSSGTQVF, the assay gave 5.27, 3.28, 4.21 (controls 3 of 9).
For FGDSLRYYYAN / GKSNRIS / SSRDSSGFQVF, the assay gave nd, nd, nd (controls 0 of 9).
For ECDRLRYYYAN / GKNNRPS / SSRDSSGFQVF, the assay gave 2.52, 2.46, 3.65 (controls 2 of 9).
For EGDFLRYYYAM / GKNNRPD / SSRDSSGFQVF, the assay gave 4.12, 4.63, nd (controls 1 of 9).
For EGDSLRLYYAN / MKNNRPS / PSRDSSGFQVF, the assay gave 4.14, nd, nd (controls 1 of 9).
For EGDSLRYYYAN / HKNNRPS / STRDSSGFQVY, the assay gave 3.78, 3.55, 4.06 (controls 2 of 9).
For EGDSVRSYYAN / GKNNRPS / SYRDSSGFQVF, the assay gave nd, nd, nd (controls 3 of 9).
For EGDSLRYYYAN / EKNNRPD / SSRQSSGFQVF, the assay gave 3.36, nd, 4.25 (controls 0 of 9).
For EGDSGRYYYAN / GKNNRPS / SYRDSSGFQVF, the assay gave 3.39, 3.70, 4.10 (controls 5 of 9).
For EGDSLRYYYAN / GKNNRPS / SSIDSSEFQVF, the assay gave 4.22, nd, nd (controls 2 of 9).
For EGDSLRYYYAN / GKGTRPS / SSRDSSGVQVF, the assay gave 2.59, 2.72, 2.19 (controls 3 of 9).
For EGDSVRYYYAN / GKNNRPS / SSKDSSGFQVF, the assay gave 3.30, 3.02, 3.16 (controls 1 of 9).
For EGDSLRYCYAN / GKNNRPS / SIRDSSGFQWF, the assay gave nd, nd, nd (controls 0 of 9).
For EFDSLRYYYAN / GKQNRPS / SSRYSSGFQVF, the assay gave nd, 5.33, nd (controls 4 of 9).
For NGDLLRYYYAN / GKNERPS / SSRDSSGFQVF, the assay gave 4.68, nd, nd (controls 1 of 9).
For EGDSLRYYYAN / GCSNRPS / SSRDSSGFQVS, the assay gave nd, 3.27, nd (controls 3 of 9).
For EGDSLRYAYAN / GKNNRPS / NSKDSSGFQVF, the assay gave 2.15, 1.92, 1.57 (controls 4 of 9).
For MGDSLRYYYAN / GKNNRPS / SSRGSSGQQVF, the assay gave 3.07, 2.19, 1.95 (controls 1 of 9).
For EGDSLDYYYAN / GKNNRPS / SQRDSSGFQVF, the assay gave 2.84, 2.52, 2.67 (controls 2 of 9).
For EGDSLRYMHAN / GKNNRPS / SSRDSSGFFVF, the assay gave 2.02, 2.16, 1.51 (controls 2 of 9).
For ERDSLRYYYAN / GKNNFPS / SSRDSSGFQAF, the assay gave 3.34, 4.61, 3.99 (controls 1 of 9).
For EGDILRYYYAN / GKNNRPS / SSRGSSGFQVF, the assay gave 2.57, 3.07, 1.62 (controls 2 of 9).
For EGHSLRYYYAN / GKNNRPW / SSRDSTGFQVF, the assay gave 2.80, 2.75, 2.60 (controls 2 of 9).
For EFDSLRYYYAN / GKNYRPS / SSRDSSKFQVF, the assay gave 3.32, nd, nd (controls 4 of 9).
For ERDSLRVYYAN / GKNNRPS / SSRDSSGFQVR, the assay gave nd, 4.53, nd (controls 1 of 9).
For EGDSLRYYYAN / GKNNRPS / SSFDSSYFGVF, the assay gave nd, 5.54, nd (controls 4 of 9).
For EGDSLRGYYAN / GLNNRSS / SSRDSSGFQVF, the assay gave 2.33, 2.42, 2.18 (controls 3 of 9).
For EGDSLRWYYAN / GKNNRPQ / SSRDSSGFQVD, the assay gave 3.62, 2.68, 3.46 (controls 3 of 9).
For EGDSLKYYYAN / GKNNRLS / SSRDQSGFQVF, the assay gave 2.73, 2.64, 2.01 (controls 3 of 9).
For EGDSLRYYYAN / GKNARPS / SWRDSSGFQAF, the assay gave nd, nd, nd (controls 2 of 9).

The closing 4 entries, repeated:

| CDR-L1 | CDR-L2 | CDR-L3 | replicates, log10 nM | control signals |
|---|---|---|---|---|
| EGDSLRGYYAN | GLNNRSS | SSRDSSGFQVF | 2.33, 2.42, 2.18 | 3 of 9 |
| EGDSLRWYYAN | GKNNRPQ | SSRDSSGFQVD | 3.62, 2.68, 3.46 | 3 of 9 |
| EGDSLKYYYAN | GKNNRLS | SSRDQSGFQVF | 2.73, 2.64, 2.01 | 3 of 9 |
| EGDSLRYYYAN | GKNARPS | SWRDSSGFQAF | nd, nd, nd | 2 of 9 |

From the AlphaSeq antibody data of Engelhart et al. 2022 (doi:10.1038/s41597-022-01779-4), copy in the FLAb collection.